Results published in US20180297966A1, “COMPOUNDS, COMPOSITIONS, AND METHODS OF MAKING AND USING THE SAME” (INNOVATIVE ANESTHETICS, LLC, priority 2015, published 2018).
Where “and” joins values, the source holds several entries; their conditions need not be identical. Identical values can stand only once.

Experiment: pH of exemplary salts with respect to concentration (% w/v)
Type: physicochemical

Compound | pH
Articaine Acesulfamate | 3.50 and 3.79 and 3.95
CCCNC(C)C(=O)Nc1c(C)csc1C(=O)OC.O=C1NS(=O)(=O)c2ccccc21 (centres unmarked) [Articaine saccharinate, Articaine Saccharinate] | 3.95
